The values that follow come from US20240166610A1, “SUBSTITUTED PYRIDAZINE PHENOL DERIVATIVES” (MEDSHINE DISCOVERY INC., priority 2021, published 2024).

Amino acid sequences for entries named in this document (tags omitted).
UniProt Q96P20, whole entry: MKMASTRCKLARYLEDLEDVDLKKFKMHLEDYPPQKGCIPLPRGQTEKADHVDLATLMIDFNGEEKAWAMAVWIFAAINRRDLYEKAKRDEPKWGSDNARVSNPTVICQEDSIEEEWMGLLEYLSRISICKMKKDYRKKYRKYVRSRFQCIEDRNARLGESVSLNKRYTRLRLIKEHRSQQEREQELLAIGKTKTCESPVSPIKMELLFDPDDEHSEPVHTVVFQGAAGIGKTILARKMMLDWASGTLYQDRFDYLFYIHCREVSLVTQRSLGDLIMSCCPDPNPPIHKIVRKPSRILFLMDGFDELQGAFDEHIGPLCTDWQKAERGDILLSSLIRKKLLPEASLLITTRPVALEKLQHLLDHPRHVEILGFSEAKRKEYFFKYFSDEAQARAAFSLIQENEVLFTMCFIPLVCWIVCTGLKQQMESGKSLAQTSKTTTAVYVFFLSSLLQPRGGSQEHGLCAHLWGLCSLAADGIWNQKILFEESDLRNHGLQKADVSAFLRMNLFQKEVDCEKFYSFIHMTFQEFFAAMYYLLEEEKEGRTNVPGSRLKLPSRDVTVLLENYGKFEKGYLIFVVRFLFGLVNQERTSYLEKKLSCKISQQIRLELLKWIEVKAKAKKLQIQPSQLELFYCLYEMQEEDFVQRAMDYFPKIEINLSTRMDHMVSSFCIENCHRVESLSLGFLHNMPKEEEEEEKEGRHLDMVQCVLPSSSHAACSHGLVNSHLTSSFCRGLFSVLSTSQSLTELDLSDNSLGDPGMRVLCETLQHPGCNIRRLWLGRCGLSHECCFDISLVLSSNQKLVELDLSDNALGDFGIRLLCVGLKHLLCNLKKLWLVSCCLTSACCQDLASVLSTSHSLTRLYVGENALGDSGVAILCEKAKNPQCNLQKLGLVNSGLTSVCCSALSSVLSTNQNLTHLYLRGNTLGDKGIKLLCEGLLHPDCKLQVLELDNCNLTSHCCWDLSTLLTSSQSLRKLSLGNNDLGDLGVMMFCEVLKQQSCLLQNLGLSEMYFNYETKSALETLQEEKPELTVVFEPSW

Each structure is given as a SMILES string.

One may read the IC50 as the midpoint of a concentration-inhibition curve. Higher therefore signals a need for much substance.

This assay deals with NLRP3 (Homo sapiens, UniProt Q96P20). Nature of the assay: Detecting IC50 of NLRP3 inhibitor by using THP-1 cells (IL-1β secretion, CBA). The format is cell-based. As to conditions: PMA/LPS/ATP, IL-1β in supernatant.
On to `Cc1cc(N[C@@H]2CCCN(C3COC3)C2)nnc1-c1ccc(C2CCCCC2)cc1O`, for which the 50% inhibitory concentration (IC50) was 28 nM.

Compound `Cc1cc(NC2COC3(CCN(C)CC3)C2)nnc1-c1ccc2sccc2c1O` (single isomer, unassigned) [Compound 68a] returned an IC50 of 33.4 nM.

Take `Cc1cc(NC2COC3(CCN(C)CC3)C2)nnc1-c1ccc2sccc2c1O` (single isomer, unassigned) [Compound 68b]: the IC50 is 24.3 nM.
